Settings: human, microsomes, 1 h

O=C(O)Cc1ccccc1Nc1c(Cl)cccc1Cl [Diclofenac]
Remaining (NCF = 60min): 96.7%
Remaining (T = 60min): 0.0%

From PMC9119080 (European journal of medicinal chemistry, 2021)
